In patent US8937088B2, “Ureas for the treatment and prevention of cancer” (Astar Biotech LLC, priority 2011, dated 2015):

System: HUH7 (human hepatoma cell line)
Assay: Cell death detection, trypan blue exclusion assay, HUH7
Format: cell-based
Conditions: HUH7, 7-day treatment, 2.5 uM
Method: Biological Test 2. Cell Death Detection Using Trypan Blue Exclusion Assay.
After drug treatment, cells were harvested by trypsinization with trypsin/EDTA for 10 min at 37° C. As some apoptotic cells detached from the culture substratum into the medium, these cells were also collected by centrifugation of the medium at 1,200 rpm for 5 min. The pooled cell pellets were resuspended and mixed with trypan blue dye. After Trypan blue stain was done, cells were counted by using a light microscope and a hemocytometer. Blue dye-incorporating cells were scored as being dead. Five hundred cells from randomly chosen fields were counted, and the number of dead cells was counted and expressed as a percentage of the total number of cells counted as shown in Tables 2 to 8 below.

`CNC(=O)c1cc(Oc2ccc(NC(=O)Nc3ccc(Cl)c(C(F)(F)F)c3)cc2)ccn1` [Sorafenib, reference compound] was tested, and the “Cell Death (%) at Tested Concentration” value was 2.1%.
